# Test results from PubChem BioAssay AID2101 (National Center for Advancing Translational Sciences (NCATS), 2009).
# This is a selection; strong and weak results do not stand in their true shares. Some tests of the compounds listed are not included; inactive here does not mean inactive elsewhere. Results filed as inconclusive are left out. Activity calls are given as the source filed them. Calls follow the shape of the dose curve; as a rule, active = well fitted inhibition curve with a large enough effect; inconclusive = small, poorly fitted or top-dose-only effect, or effect the other way, or another doubt; inactive = no such curve, though single readings can be large or run the other way.
# Biological target: Lysosomal acid glucosylceramidase (Homo sapiens) (UniProt P04062)
# Assay: qHTS Assay for Inhibitors and Activators of N370S glucocerebrosidase as a Potential Chaperone Treatment of Gaucher Disease;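 also: 0% = full enzyme activity and -100% = no enzyme basal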
# Conditions: N370S GC spleen homogenate, 4MU-glucoside fluorescence; at 59.4 µM (top of the series) unless noted
# Source text: NIH Chemical Genomics Center [NCGC]
# NIH Molecular Libraries Probe Production Centers Network [MLPCN]
# Assay Submitter (PI): Wei Zheng
# Glucocerebrosidase (GC) catalyzes the hydrolysis of beta-glucocerebroside to glucose and ceramide in lysosomes. Mutations in the glucocerebrosidase gene result in Gaucher disease, an autosomal recessive lysosomal storage disorder. Many of the mutations encountered in patients with Gaucher disease are missense alterations that may cause misfolding, decreased stability and/or mistrafficking of this lysosomal protein. […] These inhibitors include iminosugar analogs and three non-iminosugar inhibitors identified from a previous HTS of 62,000 compounds with the wild type recombinant enzyme. However, the enhancement of enzyme activity by the chaperone action of an enzyme inhibitor must be balanced against the direct inhibition of the enzyme. An enzyme activator could also function as a chaperone by binding to the enzyme and helping to correct its misfolding and mistrafficking. While activators for GC have not yet been identified, they may have better therapeutic potential than inhibitors. Therefore the discovery and development of chemical activators may provide a new strategy for the chaperone therapy.
# We have optimized a new assay using N370S mutant GC derived from the spleen of a Gaucher patient. […] In addition, the MLPCN compound library has expanded, which increases the chance of finding new and better probes.
# NCGC Assay Protocol Summary:
# This is a fluorogenic enzyme assay with 4-methylumbelliferyl-beta-D-glucopyranoside as the substrate and N370S glucocerebrosidase from human spleen homogenate as the enzyme preparation. Upon the hydrolysis of this fluorogenic substrate, the resulting product, […] which can be detected by a standard fluorescence plate reader. Data were normalized to the controls for basal activity (without enzyme) and 100% activity (with enzyme). The AC50 values were determined from concentration-response data modeled with the standard Hill equation.
# Assay buffer: 50 mM citric acid (titrated with potassium phosphate to pH 5.0), 100 mM potassium chloride, 10 mM sodium chloride, 1 mM magnesium chloride, 0.01% Tween-20.
# 1536-well assay protocol:
# (1) Add 2 ul/well of spleen homogenate (27 ug final)
# (2) Add 23 nL compounds in DMSO solution. The final titration was 0.5 nM to 58 uM.
# (3) Add 2 ul of substrate (1 mM final)
# (4) Incubate at 37C for 40 min.
# (5) Add 2 ul stop solution (1M NaOH and 1M Glycine mixture, pH 10)
# (6) Detect the assay plate in a ViewLux plate reader (PerkinElmer) with Ex=365 nm and Em=440nm.
# Keywords: Glucocerebrosidase, beta-glucosidase, Gaucher Disease, pharmacological chaperone, chaperone therapy, high throughput screening, glucocerebrosidase inhibitor, MLSMR, MLSCN, NIH Roadmap, qHTS and NCGC
row,SMILES,"activity change, negative = inhibition"
1,CC(C)N1C(=O)CC2(CCN(CCOC(=O)C(O)(c3ccccc3)c3ccccc3)CC2)C1=O,inactive: 5.6%
2,CCN(CC)CC(C)C(C)OC(=O)C(O)(c1ccccc1)c1ccccc1 (stereo not drawn),inactive: -4.37%
3,COc1cc(SC)ccc1C(=O)NCC1(N(C)C)CCCCC1,inactive: 2.75%
4,Cc1ccc(C(=O)NCC2(N3CCCCC3)CCCCC2)cc1,inactive: -28.5%
5,O=C(NCC1(N2CCCCC2)CCCCC1)c1cc([N+](=O)[O-])ccc1Cl,inactive: 2.02%
6,CN1[C@@H]2CC[C@H]1CC(OC(=O)C(O)(c1ccccc1)c1ccccc1)C2 (stereo partly drawn),inactive: -5.59%
7,C=CCN1CCN(CCOC(=O)C(O)(c2ccccc2)c2ccccc2)CC1,inactive: 28.7%
8,O=C(NCC1(N2CCCCC2)CCCCC1)c1cc(F)c(F)cc1Cl,inactive: -15.1%
9,Cc1cc(C(=O)NCC2(N3CCCCC3)CCCCC2)ccc1[N+](=O)[O-],inactive: -5.25%
10,CCN1CCCC(OC(=O)C2(O)c3ccccc3C=Cc3ccccc32)C1 (stereo not drawn),inactive: -2.14%
11,O=C(NCC1(N2CCCCC2)CCCCC1)c1cccc(Br)c1,inactive: -17.2%
12,COc1ccc(C(=O)NCC2(N(C)C)CCCCC2)cc1,inactive: 1.82%
13,Cc1ccccc1C(=O)NCC1(N2CCCCC2)CCCCC1,inactive: -7.03%
14,CN(C)C1CCCC1OC(=O)C(O)(c1ccccc1)c1ccccc1 (stereo not drawn),inactive: 4.27%
15,CN(C)c1ccc(C(=O)NCC2(N(C)C)CCCCC2)cc1,inactive: -4.7%
16,COc1cccc(C(=O)NCC2(N3CCCCC3)CCCCC2)c1,inactive: 4.35%
17,COc1ccc(Cl)cc1C(=O)NCC1(N(C)C)CCCCC1,inactive: -3.64%
18,O=C(NCC1(N2CCCCC2)CCCCC1)c1cccc(Cl)c1,inactive: -4.13%
19,CN(C)C1(CNC(=O)c2ccc(Br)cc2)CCCCC1,inactive: 0.425%
20,COc1cc(C(=O)NCC2(N(C)C)CCCCC2)c([N+](=O)[O-])cc1OC,inactive: -10.9%
21,COc1ccc(Br)c(C(=O)NCC2(N3CCCCC3)CCCCC2)c1,inactive: -9.67%
22,CN(C)c1cccc(C(=O)NCC2(N(C)C)CCCCC2)c1,inactive: -6.82% [at 2.35 µM]
23,O=C(OC1CN2CCC1CC2)C(CO)(c1ccccc1)c1ccccc1 (stereo not drawn),inactive: -7.11%
